From patent publication US20250206790A1

Legend:
[1] = target: T1, His-CTDSP1 (C-terminal domain small phosphatase 1 with C-terminal linker and His tag) (Homo sapiens (Human)), Q9GZU7; experiment: Monolith (NanoTemper); His tag of CTDSP1 (40 nM) labelled with RED-tris NTA dye, GST-RPP titrated from low pM up to 0.5 µM
T1 chain: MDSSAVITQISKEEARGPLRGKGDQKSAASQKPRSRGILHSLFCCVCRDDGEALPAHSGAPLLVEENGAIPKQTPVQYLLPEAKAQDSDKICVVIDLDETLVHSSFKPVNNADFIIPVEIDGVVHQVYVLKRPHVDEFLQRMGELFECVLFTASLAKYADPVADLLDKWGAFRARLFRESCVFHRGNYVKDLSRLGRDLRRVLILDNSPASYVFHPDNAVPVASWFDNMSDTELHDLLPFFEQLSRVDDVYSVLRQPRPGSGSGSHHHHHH

[2] = target: T1, His-CTDSP1 (C-terminal domain small …); experiment: cell-based or functional assay

Kd [1]: 0.13 nM
Relative Phosphatase activity of CTDSP1 on REST peptide TEDpSPPp[..] at 1 µM peptide-GST fusion (relative to GST control) [2]: 0.42
B1: GST-RPP (REST phosphomimetic peptide fused to GST) (peptide)
chain: MCTEDLEPPEPPLPKENCGSGSGSGSSPILGYWKIKGLVQPTRLLLEYLEEKYEEHLYERDEGDKWRNKKFELGLEFPNLPYYIDGDVKLTQSMAIIRYIADKHNMLGGCPKERAEISMLEGAVLDIRYGVSRIAYSKDFETLKVDFLSKLPEMLKMFEDRLCHKTYLNGDHVTHPDFMLYDALDVVLYMDPMCLDAFPKLVCFKKRIEAIPQIDKYLKSSKYIAWPLQGWQATFGGGDHPPK
modifications: not checked
